Earlier results as cited in PMC2783503 (Journal of medicinal chemistry, 2009).

Amino acid sequences for entries named in this document (tags omitted). A change or cut given only in a name is not applied to a line headed by its entry.
UniProt P41144: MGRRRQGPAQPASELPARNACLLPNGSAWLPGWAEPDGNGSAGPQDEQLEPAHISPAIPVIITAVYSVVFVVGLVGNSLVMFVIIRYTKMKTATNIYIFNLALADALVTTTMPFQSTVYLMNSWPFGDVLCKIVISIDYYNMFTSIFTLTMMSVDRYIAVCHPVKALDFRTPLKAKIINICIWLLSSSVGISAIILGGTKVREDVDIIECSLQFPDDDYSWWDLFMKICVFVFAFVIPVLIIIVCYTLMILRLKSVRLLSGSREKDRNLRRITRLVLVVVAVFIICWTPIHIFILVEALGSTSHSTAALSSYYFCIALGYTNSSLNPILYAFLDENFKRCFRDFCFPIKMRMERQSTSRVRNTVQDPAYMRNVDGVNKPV
UniProt P33533, whole entry: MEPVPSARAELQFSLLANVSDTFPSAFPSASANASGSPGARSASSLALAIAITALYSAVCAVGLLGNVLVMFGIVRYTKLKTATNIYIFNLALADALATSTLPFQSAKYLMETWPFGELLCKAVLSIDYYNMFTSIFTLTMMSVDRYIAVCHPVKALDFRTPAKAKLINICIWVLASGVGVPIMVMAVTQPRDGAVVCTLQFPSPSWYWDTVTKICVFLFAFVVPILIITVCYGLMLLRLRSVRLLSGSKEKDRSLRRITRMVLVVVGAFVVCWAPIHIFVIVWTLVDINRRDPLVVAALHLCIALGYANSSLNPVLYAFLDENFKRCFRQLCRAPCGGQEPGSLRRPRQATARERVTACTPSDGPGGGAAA
UniProt P33535, whole entry: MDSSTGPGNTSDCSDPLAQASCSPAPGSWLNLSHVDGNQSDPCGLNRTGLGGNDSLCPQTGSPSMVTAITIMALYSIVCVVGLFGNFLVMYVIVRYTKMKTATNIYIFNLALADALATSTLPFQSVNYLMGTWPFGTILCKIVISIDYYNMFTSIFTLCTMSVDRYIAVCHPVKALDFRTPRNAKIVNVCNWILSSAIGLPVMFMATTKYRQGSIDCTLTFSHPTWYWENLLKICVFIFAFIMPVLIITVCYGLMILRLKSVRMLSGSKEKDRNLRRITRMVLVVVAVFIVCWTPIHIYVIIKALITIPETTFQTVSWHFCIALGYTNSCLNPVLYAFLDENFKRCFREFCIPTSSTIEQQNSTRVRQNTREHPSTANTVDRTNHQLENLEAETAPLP

Experiments:
κ opioid receptor = κ opioid receptor (UniProt P41144); details: read-out: Ki^κ; ref Schiller et al.[10]; cited from earlier work
δ opioid receptor = δ opioid receptor (Rattus norvegicus, UniProt P33533); details: read-out: Ki^δ; ref Schiller et al.[10]; cited from earlier work
μ opioid receptor = μ opioid receptor (UniProt P33535); details: read-out: Ki^μ; ref Schiller et al.[10]; cited from earlier work

Substance | Ki (κ opioid receptor) | Ki (δ opioid receptor) | Ki (μ opioid receptor)
H-Dmt-Tic-Phe-Phe-OH [compound 10] | > 1000 nM | 0.248 ± 0.046 nM | 
H-Tyr-Tic-Phe-Phe-OH [compound 8] | > 1000 nM | 1.22 ± 0.07 nM | 1720 ± 50 nM
